The experiment concerns the target EGFR T790M L858R (Homo sapiens, UniProt P00533, L858R/T790M). Kind of experiment: biochemical. As to conditions: EGFR(T790M/L858R) Ki (μM), 5 μM ATP, 30 min, room temperature; apparent Ki (Morrison) converted by Cheng-Prusoff, Km of ATP 1.3 μM.

Amino acid sequences for entries named in this document (tags omitted). Residues count along the entry.
UniProt P00533, 25-1210 T790M/L858R limits assumed: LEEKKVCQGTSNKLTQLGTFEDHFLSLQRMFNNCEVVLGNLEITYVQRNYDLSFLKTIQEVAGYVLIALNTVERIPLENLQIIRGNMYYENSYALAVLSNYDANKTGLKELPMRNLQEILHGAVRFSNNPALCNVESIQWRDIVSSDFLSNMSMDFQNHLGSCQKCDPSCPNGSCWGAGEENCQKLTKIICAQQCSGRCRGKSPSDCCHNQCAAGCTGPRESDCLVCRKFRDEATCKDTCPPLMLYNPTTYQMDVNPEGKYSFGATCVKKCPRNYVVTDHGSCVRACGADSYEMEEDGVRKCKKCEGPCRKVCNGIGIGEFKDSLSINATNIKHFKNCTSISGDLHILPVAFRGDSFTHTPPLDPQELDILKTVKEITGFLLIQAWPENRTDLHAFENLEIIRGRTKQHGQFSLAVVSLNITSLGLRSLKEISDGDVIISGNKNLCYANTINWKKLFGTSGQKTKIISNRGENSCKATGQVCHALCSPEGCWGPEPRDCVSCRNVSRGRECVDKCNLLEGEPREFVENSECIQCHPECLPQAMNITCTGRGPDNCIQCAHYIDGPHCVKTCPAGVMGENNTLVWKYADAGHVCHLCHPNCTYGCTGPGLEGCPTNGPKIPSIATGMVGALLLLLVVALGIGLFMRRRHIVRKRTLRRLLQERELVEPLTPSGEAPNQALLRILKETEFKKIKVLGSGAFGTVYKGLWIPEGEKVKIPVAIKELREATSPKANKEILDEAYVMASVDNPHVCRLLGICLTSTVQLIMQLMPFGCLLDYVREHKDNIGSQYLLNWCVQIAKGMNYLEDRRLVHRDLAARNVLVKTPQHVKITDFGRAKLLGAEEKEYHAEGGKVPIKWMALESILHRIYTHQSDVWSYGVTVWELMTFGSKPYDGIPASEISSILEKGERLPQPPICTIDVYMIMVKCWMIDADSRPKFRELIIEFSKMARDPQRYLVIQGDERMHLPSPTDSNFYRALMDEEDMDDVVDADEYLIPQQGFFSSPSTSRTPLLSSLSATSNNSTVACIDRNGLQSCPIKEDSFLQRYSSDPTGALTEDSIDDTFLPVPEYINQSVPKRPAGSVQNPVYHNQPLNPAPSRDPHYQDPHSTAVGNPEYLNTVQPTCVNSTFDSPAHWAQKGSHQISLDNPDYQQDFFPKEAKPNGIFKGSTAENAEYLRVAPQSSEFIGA

As to `Cc1nc2cnc(Nc3ccnc(N4CCC(S(=O)(=O)C(C)C)CC4)n3)cc2n1C(C)C` [Example 553, (1-Isopropyl-2-methyl-1H-imidazo[4,5-c]pyridin-6-yl)-{2-[4-(propane-2-sulfonyl)piperidin-1-yl]pyrimidin-4-yl}amine], the Ki came to 0.357 µM. With `CC(C)n1c(CO)nc2cnc(Nc3ccnc(N4CCC(S(=O)(=O)C(C)C)CC4)n3)cc21` [Example 554, (1-Isopropyl-6-{2-[4-(propane-2-sulfonyl)piperidin-1-yl]pyrimidin-4-ylamino}-1H-imidazo[4,5-c]pyridin-2-yl)methanol], the Ki was 0.317 µM.

For the compound `Cc1nc2cnc(Nc3ccnc(-n4cnc(S(=O)(=O)NC5CC5)c4)n3)cc2n1C(C)C` [Example 555, 1-[4-(1-Isopropyl-2-methyl-1H-imidazo[4,5-c]pyridin-6-ylamino)pyrimidin-2-yl]-1H-imidazole-4-sulfonic acid cyclopropylamide], the Ki turned out to be 0.135 µM. For `CCNc1nc2cnc(Nc3ccnc(-c4cnn(S(=O)(=O)C5CC5)c4)n3)cc2n1C(C)C` [Example 556], the Ki is 0.00347 µM. For the compound `CC(C)n1c(COCCO)nc2cnc(Nc3ccnc(-c4cnn(S(=O)(=O)C5CC5)c4)n3)cc21` [Example 557, 2-{6-[2-(1-Cyclopropanesulfonyl-1H-pyrazol-4-yl)pyrimidin-4-ylamino]-1-isopropyl-1H-imidazo[4,5-c]pyridin-2-ylmethoxy}ethanol], the Ki stood at 0.0127 µM. In the case of `CC(C)n1c(CC(F)(F)F)nc2cnc(Nc3ccnc(-c4cnn(S(=O)(=O)C5CC5)c4)n3)cc21` [Example 558, [2-(1-Cyclopropanesulfonyl-1H-pyrazol-4-yl)-pyrimidin-4-yl]-[1-isopropyl-2-(2,2,2-trifluoro-ethyl)-1H-imidazo[4,5-c]pyridin-6-yl]amine] it was 0.0127 µM; in that of `COC1(CO)CCN(c2nccc(Nc3cc4c(cn3)nc(CO)n4C(C)C)n2)CC1` [Example 559, {6-[2-(4-Hydroxymethyl-4-methoxypiperidin-1-yl)pyrimidin-4-ylamino]-1-isopropyl-1H-imidazo[4,5-c]pyridin-2-yl}methanol], 0.0426 µM; in that of `COC(=O)C(C)(C)CNc1nccc(Nc2cc3c(cn2)nc(CO)n3C(C)C)n1` [Example 560, 3-[4-(2-Hydroxymethyl-1-isopropyl-1H-imidazo[4,5-c]pyridin-6-ylamino)pyrimidin-2-ylamino]-2,2-dimethylpropionic acid methyl ester], 1.03 µM. For `CC(C)n1c([C@@H](C)O)nc2cnc(Nc3ccnc(-c4cnn(S(=O)(=O)C5CC5)c4)n3)cc21` [Example 561, (R)-1-{6-[2-(1-Cyclopropanesulfonyl-1H-pyrazol-4-yl)pyrimidin-4-ylamino]-1-isopropyl-1H-imidazo[4,5-c]pyridin-2-yl}ethanol], the Ki was found to be 0.00216 µM. The result for `CC(C)n1c([C@H](C)O)nc2cnc(Nc3ccnc(-c4cnn(S(=O)(=O)C5CC5)c4)n3)cc21` [Example 562, (S)-1-{6-[2-(1-Cyclopropanesulfonyl-1H-pyrazol-4-yl)pyrimidin-4-ylamino]-1-isopropyl-1H-imidazo[4,5-c]pyridin-2-yl}ethanol] reads 0.00834 µM; that for `CC(C)n1c(C(C)(C)O)nc2cnc(Nc3ccnc(-c4cnn(S(=O)(=O)C5CC5)c4)n3)cc21` [Example 563, 2-{6-[2-(1-Cyclopropanesulfonyl-1H-pyrazol-4-yl)pyrimidin-4-ylamino]-1-isopropyl-1H-imidazo[4,5-c]pyridin-2-yl} propan-2-ol], 0.0125 µM; that for `CC(C)n1c(C2CC2)nc2cnc(Nc3ccnc(-c4cnn(S(=O)(=O)C5CC5)c4)n3)cc21` [Example 564, [2-(1-Cyclopropanesulfonyl-1H-pyrazol-4-yl)-pyrimidin-4-yl]-(2-cyclopropyl-1-isopropyl-1H-imidazo[4,5-c]pyridin-6-yl)amine], 0.00307 µM. As to `CC(C)n1c([C@H](C)N)nc2cnc(Nc3ccnc(-c4cnn(S(=O)(=O)C5CC5)c4)n3)cc21` [Example 567, [2-((S)-1-Aminoethyl)-1-isopropyl-1H-imidazo[4,5-c]pyridin-6-yl]-[2-(1-cyclopropanesulfonyl-1H-pyrazol-4-yl)pyrimidin-4-yl]amine], the Ki amounted to 0.0623 µM. For the compound `CC(C)n1c([C@@H](C)N)nc2cnc(Nc3ccnc(-c4cnn(S(=O)(=O)C5CC5)c4)n3)cc21` [Example 568, [2-((R)-1-Aminoethyl)-1-isopropyl-1H-imidazo[4,5-c]pyridin-6-yl]-[2-(1-cyclopropanesulfonyl-1H-pyrazol-4-yl)pyrimidin-4-yl]amine], the Ki stood at 0.0622 µM. In the case of `CC(C)n1c([C@H](O)CO)nc2cnc(Nc3ccnc(-c4cnn(S(=O)(=O)C5CC5)c4)n3)cc21` [Example 569, (S)-1-{6-[2-(1-Cyclopropanesulfonyl-1H-pyrazol-4-yl)pyrimidin-4-ylamino]-1-isopropyl-1H-imidazo[4,5-c]pyridin-2-yl}ethane-1,2-diol], the Ki is 0.00476 µM. `C[C@H](n1c(CO)nc2cnc(Nc3ccnc(-c4cnn(S(=O)(=O)C5CC5)c4)n3)cc21)C(F)(F)F` [Example 571, [6-[2-(1-Cyclopropanesulfonyl-1H-pyrazol-4-yl)pyrimidin-4-ylamino]-1-((S)-2,2,2-trifluoro-1-methyl-ethyl)-1H-imidazo[4,5-c]pyridin-2-yl]methanol]: the Ki was 0.00153 µM. As to `CC(C)n1c(CO)nc2cnc(Nc3ccnc(C4=CCOCC4)n3)cc21` [Example 573, {6-[2-(3,6-Dihydro-2H-pyran-4-yl)pyrimidin-4-ylamino]-1-isopropyl-1H-imidazo[4,5-c]pyridin-2-yl}methanol], the Ki worked out at 0.235 µM. For `CC(C)n1c(CO)nc2cnc(Nc3ccnc(C4CCOCC4)n3)cc21` [Example 574, {1-Isopropyl-6-[2-(tetrahydropyran-4-yl)pyrimidin-4-ylamino]-1H-imidazo[4,5-c]pyridin-2-yl}methanol], the Ki is 0.65 µM. In the case of `Cc1nc2cnc(Nc3ccnc(C4=CCOC4)n3)cc2n1C(C)C` [Example 575, [2-(2,5-Dihydrofuran-3-yl)pyrimidin-4-yl]-(1-isopropyl-2-methyl-1H-imidazo[4,5-c]pyridin-6-yl)amine] it was 0.258 µM; in that of `CNC(=O)c1ccc(-c2nccc(Nc3cc4c(cn3)nc(C)n4C(C)C)n2)cn1` [Example 577, 5-[4-(1-Isopropyl-2-methyl-1H-imidazo[4,5-c]pyridin-6-ylamino)pyrimidin-2-yl]pyridine-2-carboxylic acid methylamide], 0.514 µM.

For the compound `Cc1nc2cnc(Nc3ccnc(-c4ccc(C(=O)N(C)C)nc4)n3)cc2n1C(C)C` [Example 578, 5-[4-(1-Isopropyl-2-methyl-1H-imidazo[4,5-c]pyridin-6-ylamino)pyrimidin-2-yl]pyridine-2-carboxylic acid dimethylamide], the Ki worked out at 0.697 µM. The result for `CCNc1ncc(-c2nccc(Nc3cc4c(cn3)nc(CO)n4C(C)C)n2)s1` [Example 579, {6-[2-(2-Ethylaminothiazol-5-yl)-pyrimidin-4-ylamino]-1-isopropyl-1H-imidazo[4,5-c]pyridin-2-yl}methanol] reads 0.00179 µM. For the compound `Cc1nc2cnc(Nc3ccnc(NCC(C)C(N)=O)n3)cc2n1C(C)C` (stereo not drawn) [Example 580, 3-[4-(1-Isopropyl-2-methyl-1H-imidazo[4,5-c]pyridin-6-ylamino)pyrimidin-2-ylamino]-2-methylpropionamide], the Ki was 0.126 µM. Turning to `COCC(C)(CNc1nccc(Nc2cc3c(cn2)nc(C)n3C(C)C)n1)C(N)=O` (stereo not drawn) [Example 581, 3-[4-(1-Isopropyl-2-methyl-1H-imidazo[4,5-c]pyridin-6-ylamino)pyrimidin-2-ylamino]-2-methoxymethyl-2-methylpropionamide], the Ki stood at 0.108 µM. Take `Cc1nc2cnc(Nc3ccnc(NCC(C)(O)C(N)=O)n3)cc2n1C(C)C` (stereo not drawn) [Example 582, 2-Hydroxy-3-[4-(1-isopropyl-2-methyl-1H-imidazo[4,5-c]pyridin-6-ylamino)pyrimidin-2-ylamino]-2-methylpropionamide]: the Ki is 0.287 µM. On to `Cc1nc2cnc(Nc3ccnc(NCCCC(N)=O)n3)cc2n1C(C)C` [Example 583, 4-[4-(1-Isopropyl-2-methyl-imidazo[4,5-c]pyridin-6-ylamino)pyrimidin-2-ylamino]butyramide], for which the Ki amounted to 0.672 µM. Regarding `Cc1nc2cnc(Nc3ccnc(N(C)CC(C)(C)C(N)=O)n3)cc2n1C(C)C` [Example 584], the Ki amounted to 0.313 µM. `Cc1nc2cnc(Nc3ccnc(-c4ccncc4)n3)cc2n1C(C)C` [Example 585, (1-Isopropyl-2-methyl-1H-imidazo[4,5-c]pyridin-6-yl)-(2-pyridin-4-ylpyrimidin-4-yl)amine]: the Ki is 0.159 µM. On to `Cc1nc2cnc(Nc3ccnc(-c4ccc(N)nc4)n3)cc2n1C(C)C` [Example 586, [2-(6-Aminopyridin-3-yl)pyrimidin-4-yl]-(1-isopropyl-2-methyl-1H-imidazo[4,5-c]pyridin-6-yl)amine], for which the Ki is 0.00789 µM. As for `Cc1nc2cnc(Nc3ccnc(-c4ccc(S(C)(=O)=O)nc4)n3)cc2n1C(C)C` [Example 587, (1-Isopropyl-2-methyl-1H-imidazo[4,5-c]pyridin-6-yl)-[2-(6-methanesulfonylpyridin-3-yl)pyrimidin-4-yl]amine], the Ki was 1.03 µM. Consider `CNc1ncc(-c2nccc(Nc3cc4c(cn3)nc(CO)n4C(C)C)n2)s1` [Example 588, {1-Isopropyl-6-[2-(2-methylaminothiazol-5-yl)pyrimidin-4-ylamino]-1H-imidazo[4,5-c]pyridin-2-yl}methanol], for which the Ki turned out to be 0.00135 µM.

With `CC(=O)NC(C)(C)/C=C/c1nccc(Nc2cc3c(cn2)nc(C)n3C(C)C)n1` [Example 589, N-{(E)-3-[4-(1-Isopropyl-2-methyl-1H-imidazo[4,5-c]pyridin-6-ylamino)pyrimidin-2-yl]-1,1-dimethylallyl}acetamide], the Ki was determined as 0.201 µM. Turning to `Cc1nc2cnc(Nc3ccnc(N4CCCC(F)C4)n3)cc2n1C(C)C` (stereo not drawn) [Example 590, [2-(3-Fluoropiperidin-1-yl)pyrimidin-4-yl]-(1-isopropyl-2-methyl-1H-imidazo[4,5-c]pyridin-6-yl)amine], the Ki came out at 0.0519 µM.

(Values after US9890152B2 (Genentech, Inc., priority 2012, dated 2018).)
